Measurements: ChEMBL document CHEMBL1129800, “Cycloalkylpyranones and cycloalkyldihydropyrones as HIV protease inhibitors: exploring the impact of ring size on structure-activity relationships” (J Med Chem, 1996)

Biological target: Human immunodeficiency virus type 1 protease (Human immunodeficiency virus 1, UniProt Q72874)
Assay: Binding affinity towards HIV protease was determined

CCC(c1ccccc1)c1c(O)c2c(oc1=O)CCCCCC2 (stereo unspecified)
Ki: 75 nM
